Earlier results in PubChem BioAssay AID1811 (Shanghai Institute of Organic Chemistry, 2009).
Some of the results follow. Activity calls are given as the source filed them. Unless stated, no cut-off for active and inactive is given here.

Test system: FK506 binding protein
Assay: PubChem AID 1811
Conditions: PDB complex binding affinities from literature

In the case of CO[C@H]1C[C@@H]2CC[C@@H](C)[C@@](O)(O2)C(=O)C(=O)N2CCCC[C@H]2C(=O)O[C@H]([C@H](C)C[C@@H]2CC[C@@H](O)[C@H](OC)C2)CC(=O)[C@H](C)/C=C(\C)[C@@H](O)[C@@H](OC)C(=O)[C@H](C)C[C@H](C)/C=C/C=C/C=C/1C, the outcome is given as “active”.
